Patent US12070444B2, “Modulation of molecular markers using S-equol” (Board of Regents, The University of Texas System, priority 2020, dated 2024)

Protein sequences, listed by entry. Tags and fused reporters are not part of them.
UniProt Q92731, whole entry: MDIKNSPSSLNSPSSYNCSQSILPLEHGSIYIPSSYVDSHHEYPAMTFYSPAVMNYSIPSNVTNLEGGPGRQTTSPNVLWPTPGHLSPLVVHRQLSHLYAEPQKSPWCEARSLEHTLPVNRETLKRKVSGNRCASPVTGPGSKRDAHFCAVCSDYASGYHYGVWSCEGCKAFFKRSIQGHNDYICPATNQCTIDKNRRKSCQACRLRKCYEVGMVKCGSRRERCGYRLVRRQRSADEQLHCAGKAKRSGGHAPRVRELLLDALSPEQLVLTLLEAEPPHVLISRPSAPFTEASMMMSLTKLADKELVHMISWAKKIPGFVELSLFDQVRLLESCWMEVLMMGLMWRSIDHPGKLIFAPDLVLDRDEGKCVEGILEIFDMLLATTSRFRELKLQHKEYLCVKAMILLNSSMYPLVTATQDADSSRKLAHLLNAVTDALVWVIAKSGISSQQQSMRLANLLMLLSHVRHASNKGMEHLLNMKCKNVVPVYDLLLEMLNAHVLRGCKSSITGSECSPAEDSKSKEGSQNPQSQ

Biological target: T1, ERβ pY36 (Homo sapiens, UniProt Q92731)
T1 construct: host or cells: MDA-MB-231 (human TNBC cell line)
Experiment: pY36-specific phosphorylation signal of ERβ in MDA-MB-231 cells
Type: cell-based
Conditions: MDA-MB-231 cells (FIG. 16A)
From the text: FIG. 16. […] See, Yuan et al. (2016) listed below, which is incorporated by reference herein for all purposes.

- pY36-specific phosphorylation signal: enhanced
SMILES: C[C@]12CC[C@@H]3c4ccc(O)cc4CC[C@H]3[C@@H]1CC[C@@H]2O [17-β-estradiol, reference compound]
